Laboratory results published in patent publication US20130281504A1, “Reduction of Microglia-Mediated Neurotoxicity by KCa3.1 Inhibition” (THE REGENTS OF THE UNIVERSITY OF CALIFORNIA, priority 2010, published 2013).

Legend:
retinal ganglion cell = conditions: rats, intraocular injection; cited from earlier work
[1] = Pharmacokinetics and brain concentrations in rats (HPLC/MS); conditions: rat; for concentration at 12 h: ip
Procedure: At various time points following the injection approximately 100-200 μl of blood were collected from a tail nick into EDTA blood sample collection tubes. […] Blood samples were taken by cardiac puncture under deep isoflurane anesthesia. The right atrium was then cut open and 20 mL of saline slowly injected into the left ventricle to flush the blood out of the circulation. The rats were then sacrificed and brains removed. Plasma was separated by centrifugation and samples stored at −80° C. pending analysis. Plasma and homogenized brain samples were purified using C18 solid phase extraction (SPE) cartridges. […] LC/MS analysis was performed with a Hewlett-Packard 1100 series HPLC stack equipped with a Merck KGaA RT 250-4 LiChrosorb RP-18 column interfaced to a Finnigan LCQ Classic MS. The mobile phase consisted of acetonitrile and water, both containing 0.2% formic acid.

microglia [2] = test system: microglia
microglia [3] = test: AβO-induced microglia proliferation/activation (cell number); type: cell-based, mouse

Clc1ccccc1C(c1ccccc1)(c1ccccc1)n1cccn1 [TRAM-34, 1-[(2-chlorophenyl)diphenylmethyl]-1H-pyrazole]
retinal ganglion cell degeneration after optic nerve transection (retinal ganglion cell): reduced retinal ganglion cell degeneration | concentration at 12 h ([1]; Wistar, in vivo, 10 mg/kg, homogenized brain tissue concentration, i.p. 10 mg/kg, within 12 hours): 191 ± 41 nM | concentration at 12 h ([1]; Wistar, in vivo, 10 mg/kg, plasma concentration at the time of sacrifice, MCAO rats, 10 mg/kg i.p. twice daily 7 days, 12 hours after last application, mean±SD): 91 ± 46 nM | concentration at 12 h ([1]; Wistar, in vivo, 10 mg/kg, plasma concentration, i.p. 10 mg/kg, within 12 hours): 58 ± 9 nM | concentration at 12 h ([1]; Wistar, in vivo, 40 mg/kg, plasma and brain concentrations, i.p. 40 mg/kg, at 12 hours): ~400 nM | concentration at 12 h ([1]; Wistar, in vivo, 40 mg/kg, plasma concentration at the time of sacrifice, MCAO rats, 40 mg/kg i.p. twice daily 7 days, 12 hours after last application, mean±SD): 662 ± 416 nM | concentration at 24 h ([1]; male, Wistar, in vivo, iv, 10 mg/kg, total plasma concentration, i.v. 10 mg/kg, at 24 hours): 250 nM | bioavailability following s.c. administration ([1]; compared to i.v. or i.p.): very poor | plasma and brain concentrations ([1]; i.p. 40 mg/kg, for 8 hours): exceeding 1 μM | brain penetration ([1]; i.p. injection): effectively penetrates into the brain | total plasma concentration, peak ([1]; i.v. 10 mg/kg, 8 min after application): 40 µM | beneficial activities of microglia such as migration and phagocytosis (microglia [2]): does not affect | AβO-induced microglia activation / proliferation (microglia [3]; 20 nM AβO 24 hrs, 100 ng/ml poly I, 10 μg/ml E-20, 20 μM doxycycline, 1 μM TRAM-34, FIG. 3): block | microglia viability, compound alone (cell count and NO generation) (microglia [3]; TRAM-34 alone): did not affect microglia viability
